From ChEMBL document CHEMBL1129593, “Halogenated mazindol analogs as potential inhibitors of the cocaine binding site at the dopamine transporter” (J Med Chem, 1996)
pIC50: −log10 of the molar value.

The chains behind the UniProt entries cited, without tags or fusion partners.
UniProt P23977, whole entry: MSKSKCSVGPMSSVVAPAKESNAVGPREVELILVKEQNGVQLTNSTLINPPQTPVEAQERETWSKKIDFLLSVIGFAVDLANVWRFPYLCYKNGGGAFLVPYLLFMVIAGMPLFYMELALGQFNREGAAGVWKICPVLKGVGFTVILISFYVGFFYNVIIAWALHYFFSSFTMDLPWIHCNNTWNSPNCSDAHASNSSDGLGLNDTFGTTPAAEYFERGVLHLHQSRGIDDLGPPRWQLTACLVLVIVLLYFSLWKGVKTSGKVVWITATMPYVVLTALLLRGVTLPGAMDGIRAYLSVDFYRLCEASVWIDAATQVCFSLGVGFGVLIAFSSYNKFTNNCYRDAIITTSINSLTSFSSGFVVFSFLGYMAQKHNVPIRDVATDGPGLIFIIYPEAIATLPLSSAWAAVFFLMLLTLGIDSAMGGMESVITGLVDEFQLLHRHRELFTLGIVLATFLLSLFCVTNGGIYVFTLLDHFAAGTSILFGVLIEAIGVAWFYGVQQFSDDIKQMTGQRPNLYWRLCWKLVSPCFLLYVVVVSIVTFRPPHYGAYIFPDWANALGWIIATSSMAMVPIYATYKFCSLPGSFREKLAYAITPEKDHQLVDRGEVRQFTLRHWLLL

Biological target: Sodium-dependent dopamine transporter (Rattus norvegicus, UniProt P23977)
Experiment: Inhibition of [3H]WIN-35428 binding to the dopamine transporter in rat brain
Type: tissue-based
Outline: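 Striatal tissue from male Sprague-Dawley rats (200-250 g), 0.1 mg original wet weight per tube. Nonspecific binding was defined with 30 µM (R)-(-)-cocaine. Stopped by filtration through polyethylenimine-soaked GF/B filters with three ice-cold buffer washes. Equilibrium binding analysis.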

OC1(c2ccccc2Br)c2ccccc2C2=NCCN21 (stereo unspecified)
pIC50: 5.87
